# Binding of CDR-mutated scFvs to a peptide of the spike HR2 region

Target peptide (SARS-CoV-2 spike, HR2 region): PDVDLGDISGINAS

Parent scFv Ab-95: VH joined to VL by a (GGGGS)3 linker. Changes lie in the light chain CDRs alone.
VH: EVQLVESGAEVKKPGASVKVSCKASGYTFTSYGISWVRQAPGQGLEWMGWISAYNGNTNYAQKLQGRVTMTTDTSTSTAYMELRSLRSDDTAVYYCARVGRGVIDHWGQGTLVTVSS
VL: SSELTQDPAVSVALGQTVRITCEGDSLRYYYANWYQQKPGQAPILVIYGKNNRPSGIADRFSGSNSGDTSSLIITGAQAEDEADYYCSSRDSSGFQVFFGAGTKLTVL

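The starting antibody came from a phage panning campaign against this peptide. Variants in AAYL52 differ from the parent at up to three CDR positions; double and triple changes were sampled at random. The scFvs were displayed on barcoded MATa yeast, the peptide on MATalpha yeast. After mating in shaken culture at 30 °C for 16 h, diploids were selected and their barcode pairs sequenced. Read counts were normalised to the haploid input and turned into Kd by a linear fit to BCL2-family pairs of known affinity, for each replicate. Each pool was mated in three replicate cultures.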

Each variant is given by its three light chain CDRs, as the data file delimits them; those of the parent are EGDSLRYYYAN, GKNNRPS, SSRDSSGFQVF. Scale: log10 of Kd in nM, estimated from mating counts; low values are strong binders. A mean of the replicates is given; it leaves out those without a signal. Where no diploid with the target was found in that replicate, the entry reads "nd": below detection, most likely a poor binder, though not proof of it. For reference, the parent read 2.31 as the reference entry and 2.25 as a member of this library. Empty control strains, which show no peptide, gave a signal in 28% of pairings with library AAYL52; the median was 3.91 and 95% of these signals were weaker than 2.90. No background was subtracted.

| # | CDR-L1 | CDR-L2 | CDR-L3 | log10 Kd (nM) by replicate | log10 Kd (nM), mean |
|---|---|---|---|---|---|
| 1 | EGDSLRYYYAD | GKNNRPS | SSRDNSGEQVF | nd / nd / nd | nd |
| 2 | EGDSPRYYYAN | GKNNRDS | SSRDTSGFQVF | nd / nd / nd | nd |
| 3 | EGDSLIVYYAN | GKNNRPS | SSRDSSHFQVF | nd / nd / 2.94 | 2.94 |
| 4 | EGDSLWYYYAN | GKNNRPS | SSRDSDGFQVF | 4.20 / 3.67 / 3.27 | 3.71 |
| 5 | EADSLRYYYAN | GKNNRPS | SSRDSSGFQVQ | 3.10 / 3.27 / nd | 3.19 |
| 6 | EGDSLRYYYAN | GKNNRPQ | SSRDSSGCQVE | nd / nd / nd | nd |
| 7 | EGDSLRIYYAN | GKKNRPS | SSRDSSGEQVF | 4.30 / nd / nd | 4.30 |
| 8 | EGDSLRYYYAN | HKNNRPS | SSRWSSGFQVY | nd / 4.34 / nd | 4.34 |
| 9 | KGDSLRYYYAN | GKNNTPS | SSRDSSGFDVF | 3.39 / 3.18 / 3.47 | 3.34 |
| 10 | EGESLRYYYAN | GKNNRPK | SSLDSSGFQVF | 3.15 / 2.82 / 2.26 | 2.74 |
| 11 | EGDSLRYVYAN | GKNNRPS | KSRDSSGFIVF | 2.25 / 1.89 / 1.43 | 1.86 |
| 12 | EGDMLRYYYAN | GKNNRPS | SSRDSSGVQVF | 2.85 / 3.01 / nd | 2.93 |
| 13 | EGDSLRYYYAP | GKINRDS | SSRDSSGFQVF | nd / 5.38 / nd | 5.38 |
| 14 | ERDSLRRYYAN | GKNNRPS | SSRDSSGFGVF | 5.66 / nd / nd | 5.66 |
| 15 | SGDSLRYYTAN | GKNNYPS | SSRDSSGFQVF | 3.38 / 3.90 / 2.62 | 3.30 |
| 16 | EGDSLRYYYAN | GKNNRPS | SSRLSSEFQVF | nd / nd / 4.28 | 4.28 |
| 17 | EHRSLRYYYAN | GKVNRPS | SSRDSSGFQVF | nd / nd / nd | nd |
| 18 | EGDKLRYYYAN | GKGNRPS | SSRDSSGFQVF | 2.41 / 3.17 / 2.53 | 2.70 |
| 19 | EGDSLRYYFAN | GKNNRPS | SSRDSSGAQVP | 3.09 / 2.98 / 2.68 | 2.92 |
| 20 | EGDSMLYYYAN | GKNNRPS | SSRDSSGFSVF | 3.09 / 3.61 / 3.58 | 3.43 |
| 21 | EGDSLRYYYAN | GGNTRPS | SSRDSSFFQVF | nd / nd / nd | nd |
| 22 | EGDSLRYYYAN | GKNEMPS | SSRDSSGFQVF | 3.52 / 3.48 / 2.88 | 3.29 |
| 23 | EGDSLRMYTLN | GKNNRPS | SSRDSSGFQVF | 5.23 / 5.35 / 4.42 | 5.00 |
| 24 | EGDSLRYYYMN | GKNNRPS | SKRDSSGFQVF | 3.18 / nd / 3.71 | 3.44 |
| 25 | CGDSLRYWLAN | GKNNRPS | SSRDSSGFQVF | 3.44 / 3.89 / 3.71 | 3.68 |
| 26 | EGDSLRYYYAN | GKNNRWS | SSRDGSGFQIF | 3.47 / 5.12 / 2.76 | 3.78 |
| 27 | VGDSLRYYEAN | GKNNRPS | SSYDSSGFQVF | 2.80 / 4.29 / nd | 3.54 |
| 28 | EGISLRYYYAN | GKNNRPS | WSRDSSGTQVF | 3.16 / 3.78 / 4.46 | 3.80 |
| 29 | EGDMLRYYYAN | GKNNRPP | SSNDSSGFQVF | 3.00 / 3.52 / 3.81 | 3.44 |
| 30 | EGDSCRYYYAN | GKNNRPS | SSDGSSGFQVF | 3.91 / nd / 4.16 | 4.03 |
| 31 | EGDSLDYHYAN | GKNPRPS | SSRDSSGFQVF | nd / 3.49 / nd | 3.49 |
| 32 | EGDSLMYYYAN | GENNRSS | SSRDSSGFQVF | 2.56 / 1.92 / 2.02 | 2.17 |
| 33 | EGDNLRYSYAN | GKNNRPS | SSRDSSGFQDF | 2.79 / 2.25 / 1.56 | 2.20 |
| 34 | EGDSLRYYYNN | GKNNIPS | DSRDSSGFQVF | nd / nd / nd | nd |
| 35 | EGDSLRYYYEN | TKNNRPS | SSRDSSGFQKF | 4.17 / nd / nd | 4.17 |
| 36 | EGDSLCYYYAN | GKNNRPS | SSQDSSGFMVF | nd / nd / 3.00 | 3.00 |
| 37 | EGDSLMYKYAN | QKNNRPS | SSRDSSGFQVF | 2.64 / 2.72 / 1.89 | 2.41 |
| 38 | EGDSLRYYYAN | IKNNRPS | SSRDHSGFQVF | nd / 4.10 / nd | 4.10 |
| 39 | EGDSLELYYAN | GKNNRPS | SFRDSSGFQVF | nd / 5.41 / nd | 5.41 |
| 40 | EGDSLRAYYAN | GKNNRPS | SERDSSIFQVF | 2.61 / 3.19 / 3.48 | 3.09 |
| 41 | EGDSLRYYYAN | GKNNRPS | SSIDSWGFQVE | 3.78 / 2.83 / 2.95 | 3.18 |
| 42 | EGDSLTYYMAD | GKNNRPS | SSRDSSGFQVF | 4.04 / nd / 3.51 | 3.78 |
| 43 | EGDSLRYYYAQ | GKNNRPS | YSRDSSGFQWF | nd / 4.59 / nd | 4.59 |
| 44 | EGDSLRYYYAN | GQNNRPS | SSNDSHGFQVF | nd / 2.62 / nd | 2.62 |
| 45 | EGDSLRYYYAN | GKNGRPS | SSRDSWGFNVF | 3.95 / 3.69 / 3.72 | 3.79 |
| 46 | EGDSLRYYYAK | GKNNRPS | SSRDSSGGQVF | nd / nd / 4.06 | 4.06 |
| 47 | EGHSLRYYYAN | GKNNRPS | SSKHSSGFQVF | nd / nd / nd | nd |
| 48 | EGDSLRYTYAN | PKNNRPS | SSRDASGFQVF | 2.61 / 2.74 / 3.25 | 2.86 |
| 49 | EGDNLRYYYAN | GKNNRPS | SSRDTSCFQVF | nd / nd / nd | nd |
| 50 | EGPSLRYYYAK | GKQNRPS | SSRDSSGFQVF | 4.49 / nd / 4.33 | 4.41 |

Extract of 8 entries:

| CDR-L1 | CDR-L2 | CDR-L3 | log10 Kd (nM) by replicate | log10 Kd (nM), mean |
|---|---|---|---|---|
| EGDSLRYYYAN | GKNNRPQ | SSRDSSGCQVE | nd / nd / nd | nd |
| EGDSMLYYYAN | GKNNRPS | SSRDSSGFSVF | 3.09 / 3.61 / 3.58 | 3.43 |
| EGHSLRYYYAN | GKNNRPS | SSKHSSGFQVF | nd / nd / nd | nd |
| EGISLRYYYAN | GKNNRPS | WSRDSSGTQVF | 3.16 / 3.78 / 4.46 | 3.80 |
| EGDSLRYYYMN | GKNNRPS | SKRDSSGFQVF | 3.18 / nd / 3.71 | 3.44 |
| EGDSLRYYYAN | GGNTRPS | SSRDSSFFQVF | nd / nd / nd | nd |
| EGDSLWYYYAN | GKNNRPS | SSRDSDGFQVF | 4.20 / 3.67 / 3.27 | 3.71 |
| EGDSLTYYMAD | GKNNRPS | SSRDSSGFQVF | 4.04 / nd / 3.51 | 3.78 |

Source: Engelhart et al. 2022 (doi:10.1038/s41597-022-01779-4), MIT Lincoln Laboratory and A-Alpha Bio; data file from the FLAb repository.